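Briefly, cells in 96-well plates were exposed to five compound concentrations for 48 h, and endpoints were estimated by linear interpolation. The concentration for 50% growth inhibition is given as GI50. At the TGI there is no net growth.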
How the values were obtained:
Test in all cases: inhibition of tumour cell growth, NCI panel, 48 h
SK-MEL-5 melanoma = system: SK-MEL-5 melanoma
A549 NSCLC = system: A549 NSCLC
MALME-3M melanoma = system: MALME-3M melanoma
OVCAR-3 ovarian = system: OVCAR-3 ovarian
BT-549 breast = system: BT-549 breast
RPMI-8226 leukemia = system: RPMI-8226 leukemia
MDA-MB-435 = system: MDA-MB-435
SF-268 CNS = system: SF-268 CNS
SW-620 colon = system: SW-620 colon
IGROV1 ovarian = system: IGROV1 ovarian
TK-10 renal = system: TK-10 renal
NCI-H23 lung = system: NCI-H23 lung
SN12C renal = system: SN12C renal
SF-295 CNS = system: SF-295 CNS
HOP-62 NSCLC = system: HOP-62 NSCLC
K-562 leukemia = system: K-562 leukemia
PC-3 prostate = system: PC-3 prostate
RXF 393 renal = system: RXF 393 renal
HCC-2998 colon = system: HCC-2998 colon
OVCAR-5 ovarian = system: OVCAR-5 ovarian
SF-539 CNS = system: SF-539 CNS
MOLT-4 leukemia = system: MOLT-4 leukemia
OVCAR-8 ovarian = system: OVCAR-8 ovarian
SK-OV-3 ovarian = system: SK-OV-3 ovarian
NCI-H226 lung = system: NCI-H226 lung
HS 578T breast = system: HS 578T breast
UO-31 renal = system: UO-31 renal
UACC-257 melanoma = system: UACC-257 melanoma
A498 renal = system: A498 renal
NCI/ADR-RES ovarian = system: NCI/ADR-RES ovarian
SK-MEL-28 melanoma = system: SK-MEL-28 melanoma
NCI-H460 lung = system: NCI-H460 lung
UACC-62 melanoma = system: UACC-62 melanoma
CCRF-CEM leukemia = system: CCRF-CEM leukemia
EKVX NSCLC = system: EKVX NSCLC
COLO 205 colon = system: COLO 205 colon
DU-145 prostate = system: DU-145 prostate
786-0 renal = system: 786-0 renal
NCI-H322M lung = system: NCI-H322M lung
HT29 colon = system: HT29 colon
HL-60(TB) leukemia = system: HL-60(TB) leukemia
M14 melanoma = system: M14 melanoma
SNB-19 CNS = system: SNB-19 CNS
SR leukemia = system: SR leukemia
U251 CNS = system: U251 CNS
MDA-MB-231 breast = system: MDA-MB-231 breast
NCI-H522 lung = system: NCI-H522 lung
HCT-15 colon = system: HCT-15 colon
MCF7 breast = system: MCF7 breast
MDA-N = system: MDA-N
OVCAR-4 ovarian = system: OVCAR-4 ovarian
HOP-92 NSCLC = system: HOP-92 NSCLC
CAKI-1 renal = system: CAKI-1 renal
T-47D breast = system: T-47D breast
LOX IMVI melanoma = system: LOX IMVI melanoma
SK-MEL-2 melanoma = system: SK-MEL-2 melanoma
HCT-116 colon = system: HCT-116 colon
KM12 colon = system: KM12 colon
SNB-75 CNS = system: SNB-75 CNS
ACHN renal = system: ACHN renal

Question: Which GI50 (SK-MEL-5 melanoma) does the source give for `CCCCCCCCCCCCCCCC[C@H]1C[N+](C)(C)CCO[P@](C)(=O)O1` here?
Answer: 12.4 µM

Question: What about the TGI (SK-MEL-5 melanoma) of the same compound?
Answer: 27.7 µM

Question: And the GI50 (A549 NSCLC)?
Answer: 7.13 µM

Question: What about the TGI (A549 NSCLC) of the same compound?
Answer: 23.8 µM

Question: What about the GI50 (MALME-3M melanoma) of the same compound?
Answer: 15.4 µM

Question: What about the TGI (MALME-3M melanoma) of the same compound?
Answer: 30.1 µM

Question: And the GI50 (OVCAR-3 ovarian)?
Answer: 5.72 µM

Question: And the TGI (OVCAR-3 ovarian)?
Answer: 19.6 µM

Question: What about the GI50 (BT-549 breast) of the same compound?
Answer: 5.56 µM

Question: And the TGI (BT-549 breast)?
Answer: 16.8 µM

Question: And the GI50 (RPMI-8226 leukemia)?
Answer: 2.19 µM

Question: And the TGI (RPMI-8226 leukemia)?
Answer: 7.23 µM

Question: What about the GI50 (MDA-MB-435) of the same compound?
Answer: 15.2 µM

Question: And the TGI (MDA-MB-435)?
Answer: 29.2 µM

Question: And the GI50 (SF-268 CNS)?
Answer: 4.15 µM

Question: And the TGI (SF-268 CNS)?
Answer: 15.7 µM

Question: What about the GI50 (SW-620 colon) of the same compound?
Answer: 12.1 µM

Question: And the TGI (SW-620 colon)?
Answer: 28.2 µM

Question: What about the GI50 (IGROV1 ovarian) of the same compound?
Answer: 2.02 µM

Question: And the TGI (IGROV1 ovarian)?
Answer: 5.99 µM

Question: What about the GI50 (TK-10 renal) of the same compound?
Answer: 2.35 µM

Question: And the TGI (TK-10 renal)?
Answer: 6.63 µM

Question: What about the GI50 (NCI-H23 lung) of the same compound?
Answer: 7.1 µM

Question: What about the TGI (NCI-H23 lung) of the same compound?
Answer: 22.3 µM

Question: What about the GI50 (SN12C renal) of the same compound?
Answer: 6.43 µM

Question: What about the TGI (SN12C renal) of the same compound?
Answer: 20.2 µM

Question: And the GI50 (SF-295 CNS)?
Answer: 4.26 µM

Question: And the TGI (SF-295 CNS)?
Answer: 16.2 µM

Question: And the GI50 (HOP-62 NSCLC)?
Answer: 4.49 µM

Question: What about the TGI (HOP-62 NSCLC) of the same compound?
Answer: 18.2 µM

Question: What about the GI50 (K-562 leukemia) of the same compound?
Answer: 9.84 µM

Question: What about the TGI (K-562 leukemia) of the same compound?
Answer: 47.5 µM

Question: What about the GI50 (PC-3 prostate) of the same compound?
Answer: 2.11 µM

Question: What about the TGI (PC-3 prostate) of the same compound?
Answer: 4.99 µM

Question: And the GI50 (RXF 393 renal)?
Answer: 1.7 µM

Question: And the TGI (RXF 393 renal)?
Answer: 3.68 µM

Question: What about the GI50 (HCC-2998 colon) of the same compound?
Answer: 2.15 µM

Question: And the TGI (HCC-2998 colon)?
Answer: 4.7 µM

Question: What about the GI50 (OVCAR-5 ovarian) of the same compound?
Answer: 2.57 µM

Question: What about the TGI (OVCAR-5 ovarian) of the same compound?
Answer: 7.58 µM

Question: What about the GI50 (SF-539 CNS) of the same compound?
Answer: 6.19 µM

Question: And the TGI (SF-539 CNS)?
Answer: 20.6 µM

Question: What about the GI50 (MOLT-4 leukemia) of the same compound?
Answer: 3.63 µM

Question: What about the TGI (MOLT-4 leukemia) of the same compound?
Answer: 28.5 µM

Question: And the GI50 (OVCAR-8 ovarian)?
Answer: 7.52 µM

Question: And the TGI (OVCAR-8 ovarian)?
Answer: 24.4 µM

Question: And the GI50 (SK-OV-3 ovarian)?
Answer: 16.2 µM

Question: And the TGI (SK-OV-3 ovarian)?
Answer: 33.8 µM

Question: What about the GI50 (NCI-H226 lung) of the same compound?
Answer: 2.64 µM

Question: And the TGI (NCI-H226 lung)?
Answer: 11.1 µM

Question: What about the GI50 (HS 578T breast) of the same compound?
Answer: 9.57 µM

Question: And the TGI (HS 578T breast)?
Answer: 30.9 µM

Question: And the GI50 (UO-31 renal)?
Answer: 14.5 µM

Question: And the TGI (UO-31 renal)?
Answer: 29.8 µM

Question: And the GI50 (UACC-257 melanoma)?
Answer: 19 µM

Question: And the TGI (UACC-257 melanoma)?
Answer: 39.7 µM

Question: And the GI50 (A498 renal)?
Answer: 6.12 µM

Question: What about the TGI (A498 renal) of the same compound?
Answer: 22.6 µM

Question: What about the GI50 (NCI/ADR-RES ovarian) of the same compound?
Answer: 25.4 µM

Question: And the TGI (NCI/ADR-RES ovarian)?
Answer: 62.2 µM

Question: What about the GI50 (SK-MEL-28 melanoma) of the same compound?
Answer: 17.5 µM

Question: What about the TGI (SK-MEL-28 melanoma) of the same compound?
Answer: 33.5 µM

Question: What about the GI50 (NCI-H460 lung) of the same compound?
Answer: 2.53 µM

Question: And the TGI (NCI-H460 lung)?
Answer: 6.71 µM

Question: And the GI50 (UACC-62 melanoma)?
Answer: 9.4 µM

Question: And the TGI (UACC-62 melanoma)?
Answer: 25.7 µM

Question: And the GI50 (CCRF-CEM leukemia)?
Answer: 2.35 µM

Question: And the TGI (CCRF-CEM leukemia)?
Answer: 11 µM

Question: What about the GI50 (EKVX NSCLC) of the same compound?
Answer: 18 µM

Question: And the TGI (EKVX NSCLC)?
Answer: 38.1 µM

Question: And the GI50 (COLO 205 colon)?
Answer: 2.04 µM

Question: And the TGI (COLO 205 colon)?
Answer: 4.46 µM

Question: And the GI50 (DU-145 prostate)?
Answer: 11.7 µM

Question: What about the TGI (DU-145 prostate) of the same compound?
Answer: 24.3 µM

Question: What about the GI50 (786-0 renal) of the same compound?
Answer: 2.89 µM

Question: What about the TGI (786-0 renal) of the same compound?
Answer: 7.72 µM

Question: And the GI50 (NCI-H322M lung)?
Answer: 13.9 µM

Question: What about the TGI (NCI-H322M lung) of the same compound?
Answer: 27.3 µM

Question: And the GI50 (HT29 colon)?
Answer: 2.98 µM

Question: What about the TGI (HT29 colon) of the same compound?
Answer: 11.9 µM

Question: What about the GI50 (HL-60(TB) leukemia) of the same compound?
Answer: 1.6 µM

Question: What about the TGI (HL-60(TB) leukemia) of the same compound?
Answer: > 100 µM

Question: What about the GI50 (M14 melanoma) of the same compound?
Answer: 12.9 µM

Question: What about the TGI (M14 melanoma) of the same compound?
Answer: 26.5 µM

Question: What about the GI50 (SNB-19 CNS) of the same compound?
Answer: 3.62 µM

Question: What about the TGI (SNB-19 CNS) of the same compound?
Answer: 13.3 µM

Question: What about the GI50 (SR leukemia) of the same compound?
Answer: 3.04 µM

Question: What about the TGI (SR leukemia) of the same compound?
Answer: 13.8 µM

Question: What about the GI50 (U251 CNS) of the same compound?
Answer: 1.73 µM

Question: What about the TGI (U251 CNS) of the same compound?
Answer: 3.42 µM

Question: What about the GI50 (MDA-MB-231 breast) of the same compound?
Answer: 2.67 µM

Question: And the TGI (MDA-MB-231 breast)?
Answer: 9.83 µM

Question: What about the GI50 (NCI-H522 lung) of the same compound?
Answer: 3.08 µM

Question: And the TGI (NCI-H522 lung)?
Answer: 12.8 µM

Question: And the GI50 (HCT-15 colon)?
Answer: 14.1 µM

Question: What about the TGI (HCT-15 colon) of the same compound?
Answer: 29.2 µM

Question: What about the GI50 (MCF7 breast) of the same compound?
Answer: 12.1 µM

Question: And the TGI (MCF7 breast)?
Answer: 29.7 µM

Question: And the GI50 (MDA-N)?
Answer: 17.6 µM

Question: What about the TGI (MDA-N) of the same compound?
Answer: 33.8 µM

Question: What about the GI50 (OVCAR-4 ovarian) of the same compound?
Answer: 8.03 µM

Question: And the TGI (OVCAR-4 ovarian)?
Answer: 25.2 µM

Question: And the GI50 (HOP-92 NSCLC)?
Answer: 1.92 µM

Question: And the TGI (HOP-92 NSCLC)?
Answer: 6.88 µM

Question: And the GI50 (CAKI-1 renal)?
Answer: 6.76 µM

Question: What about the TGI (CAKI-1 renal) of the same compound?
Answer: 23.6 µM

Question: What about the GI50 (T-47D breast) of the same compound?
Answer: 20.4 µM

Question: And the TGI (T-47D breast)?
Answer: 43.4 µM

Question: And the GI50 (LOX IMVI melanoma)?
Answer: 3.88 µM

Question: What about the TGI (LOX IMVI melanoma) of the same compound?
Answer: 15.8 µM

Question: And the GI50 (SK-MEL-2 melanoma)?
Answer: 18.3 µM

Question: What about the TGI (SK-MEL-2 melanoma) of the same compound?
Answer: 37.1 µM

Question: And the GI50 (HCT-116 colon)?
Answer: 6.96 µM

Question: And the TGI (HCT-116 colon)?
Answer: 22.1 µM

Question: And the GI50 (KM12 colon)?
Answer: 5.34 µM

Question: And the TGI (KM12 colon)?
Answer: 10.9 µM

Question: And the GI50 (SNB-75 CNS)?
Answer: 2 µM

Question: What about the TGI (SNB-75 CNS) of the same compound?
Answer: 6.46 µM

Question: What about the GI50 (ACHN renal) of the same compound?
Answer: 11.5 µM

Question: What about the TGI (ACHN renal) of the same compound?
Answer: 27 µM
